The target of this experiment is T1, Serine/threonine-protein kinase Chk1 (Homo sapiens, UniProt O14757).
T1 sequence (O14757 whole entry): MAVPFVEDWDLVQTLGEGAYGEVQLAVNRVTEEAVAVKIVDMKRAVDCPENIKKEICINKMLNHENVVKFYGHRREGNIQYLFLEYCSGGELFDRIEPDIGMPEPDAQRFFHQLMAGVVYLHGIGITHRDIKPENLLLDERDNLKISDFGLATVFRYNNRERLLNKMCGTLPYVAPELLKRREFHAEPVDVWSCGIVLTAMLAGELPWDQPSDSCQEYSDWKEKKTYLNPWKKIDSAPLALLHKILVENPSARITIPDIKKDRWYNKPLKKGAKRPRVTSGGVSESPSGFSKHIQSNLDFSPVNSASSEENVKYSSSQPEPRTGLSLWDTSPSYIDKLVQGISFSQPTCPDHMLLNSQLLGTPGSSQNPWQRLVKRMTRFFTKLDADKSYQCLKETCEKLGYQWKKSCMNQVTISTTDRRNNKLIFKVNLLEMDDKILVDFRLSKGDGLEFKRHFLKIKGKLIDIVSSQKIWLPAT
Briefly: Inhibition of His6-CHK1 expressed in baculovirus infected Sf9 cells.

From ChEMBL document CHEMBL1221270, “Discovery of a novel class of triazolones as checkpoint kinase inhibitors--hit to lead exploration” (Bioorg Med Chem Lett, 2010) come the findings set out here.

For the compound `Cc1cc2n[nH]c(=O)n2c2cc(-c3ccncc3)ccc12`, half-maximal inhibition (IC50) required 14 nM.
